Laboratory results from article PMC8682755.

Biological target: recombinant CMG helicase (Cdc45, Mcm2-7, GINS) (not stated | X. laevis) (UniProt Q9YHZ6)

With “recombinant Xenopus laevis CRL2^Lrr1 (Cul2, Rbx1, Elongin B, Elongin C, Lrr1) (complex)” the Mcm7 polyubiquitylation in a reconstituted system with purified proteins (neddylated rCRL2^Lrr1 30 nM, rCMG 15 nM, E1, Ube2D2, Ube2R1, ubiquitin, ATP; western blot) (ubiquitin moieties) was less than 7.
